From patent US8906884B2, “Method of treating graft-rejection using dextran sulfate” (TX Medic AB, priority 2002, dated 2014)

Tests used:
[1] = tested on: adult porcine islets (API)
[2] = tested on: IBMIR triggered by API in fresh human blood; conditions: in words
[3] = API cultured 3 days with 0.01 mg/ml
[4] = API cultured 3 days with 0.1 mg/ml
[5] = API cultured 3 days with 1 mg/ml

Low molecular weight dextran sulfate [LMW-DS]
ADP/ATP ratio [1, 3]: 0.08 ± 0.03
Insulin/DNA ratio [1, 3]: 66.1 ± 5.8 pmol/µg
Stimulation Index in SGS test [1, 3]: 2.26 ± 0.51
Survival rate (% IEQ) [1, 3]: 43.6 ± 6.7 % IEQ
ADP/ATP ratio [1, 4]: 0.10 ± 0.03
Insulin/DNA ratio [1, 4]: 69.1 ± 9.6 pmol/µg
Stimulation Index in SGS test [1, 4]: 3.22 ± 0.89
Survival rate (% IEQ) [1, 4]: 58.4 ± 4.3 % IEQ
ADP/ATP ratio [1, 5]: 0.11 ± 0.01
Insulin/DNA ratio [1, 5]: 71.6 ± 7.4 pmol/µg
Stimulation Index in SGS test [1, 5]: 1.42 ± 0.35
Survival rate (% IEQ) [1, 5]: 68.9 ± 2.6 % IEQ
Morphology of treated API versus API cultured without LMW-DS ([1]; in words): no difference
Direct activation of factor XII [2]: not directly activated

Read-outs that look alike come from different tables or passages of the source.
